The values that follow come from PMC5679609 (PLoS ONE, 2017).

In the test the target is RhoGDI1 (GDP-dissociation inhibitor 1) (human (endogenous in MCF-7)) (UniProt P52565). Nature of the test: co-IP; anti-RhoGDI1 antibody, lysates of the MCF-7 lines expressing the SDC4 constructs; Mg2+-lysis buffer; blot for GFP::SDC4, Rac1 or RhoA.

As for “Rac1 (from UniProt P63000 1-192) (natural protein; other documents disagree on this pair)”, the increase of co-precipitated Rac1 in Ser179Glu SDC4 cells against the other cell lines came to 50%.
